# Only a part is listed here, and it is no random draw. Some results for these compounds are left out of this collection, so the calls shown say nothing about other tests. Activity calls are given as the source filed them. No stated cut-off is given here; in the data, active means fluorescence above about 89; inactive means the rest.
# Assay: green autofluorescence of compounds with GSH beads – biophysical, 488/530 nm, flow cytometry, artefact control, profiling panel (AID 1776);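 further: glutathione beads carrying GST-tagged Bcl family fusion proteins plus one bare bead set; values are compound well signal with DMSO vehicle wells as background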
# Conditions: compound fluorescence 488/530 nm, at 10 µM, active compounds read high
row,Compound,fluorescence (KMESF)
1,O=C(NCC1(N2CCCCC2)CCCCC1)c1cc([N+](=O)[O-])ccc1Cl,inactive: 16
2,CC(C)N1C(=O)CC2(CCN(CCOC(=O)C(O)(c3ccccc3)c3ccccc3)CC2)C1=O,inactive: 14
3,CN(C)C1CCCC1OC(=O)C(O)(c1ccccc1)c1ccccc1 (centres undefined),inactive: 17
4,Cc1ccccc1C(=O)NCC1(N2CCCCC2)CCCCC1,inactive: 28
5,C=CCN1CCN(CCOC(=O)C(O)(c2ccccc2)c2ccccc2)CC1,inactive: 21
6,CCN1CCCC(OC(=O)C2(O)c3ccccc3C=Cc3ccccc32)C1 (centres undefined),inactive: 9
7,COc1cccc(C(=O)NCC2(N3CCCCC3)CCCCC2)c1,inactive: 14
8,O=C(OC1CN2CCC1CC2)C(CO)(c1ccccc1)c1ccccc1 (centres undefined),inactive: 27
9,CN(C)c1cccc(C(=O)NCC2(N(C)C)CCCCC2)c1,inactive: 19

# — PubChem BioAssay AID1776 (NMMLSC, 2009)
